In PubChem BioAssay (NCATS):
This is a selection; strong and weak results do not stand in their true shares. Inconclusive results are not listed. Calls of active or inactive are those of the source. Unless noted, calls come from the whole dose curve; as a rule, active = well fitted curve in the direction sought with a large enough effect; inconclusive = small, poorly fitted or top-dose-only effect, or another doubt; inactive = no such curve, though single readings can be large; an effect the other way counts as inactive or inconclusive.

Protein sequences, listed by entry. Tags and fused reporters are not part of them.
UniProt Q99828, whole entry: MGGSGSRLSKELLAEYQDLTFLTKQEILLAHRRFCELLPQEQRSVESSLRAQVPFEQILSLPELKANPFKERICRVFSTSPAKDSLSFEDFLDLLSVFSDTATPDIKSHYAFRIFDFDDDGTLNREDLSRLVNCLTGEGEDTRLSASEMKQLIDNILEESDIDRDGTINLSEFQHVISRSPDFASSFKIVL
UniProt O15297, whole entry: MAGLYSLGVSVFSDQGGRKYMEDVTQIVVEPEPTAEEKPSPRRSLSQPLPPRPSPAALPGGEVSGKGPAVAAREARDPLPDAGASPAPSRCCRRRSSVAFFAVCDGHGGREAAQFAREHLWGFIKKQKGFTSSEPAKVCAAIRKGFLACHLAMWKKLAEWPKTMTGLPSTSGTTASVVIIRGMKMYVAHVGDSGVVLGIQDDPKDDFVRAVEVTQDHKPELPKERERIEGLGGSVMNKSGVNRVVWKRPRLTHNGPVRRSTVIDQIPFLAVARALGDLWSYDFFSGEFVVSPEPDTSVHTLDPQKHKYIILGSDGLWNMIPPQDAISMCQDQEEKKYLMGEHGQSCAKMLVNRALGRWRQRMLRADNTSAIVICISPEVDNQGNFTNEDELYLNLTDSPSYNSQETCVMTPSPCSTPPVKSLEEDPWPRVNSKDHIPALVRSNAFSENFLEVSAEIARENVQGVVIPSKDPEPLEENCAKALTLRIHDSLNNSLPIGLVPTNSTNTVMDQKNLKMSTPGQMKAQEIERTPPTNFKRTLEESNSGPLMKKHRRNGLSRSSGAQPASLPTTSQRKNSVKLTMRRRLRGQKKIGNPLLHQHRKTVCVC
UniProt P10635, whole entry: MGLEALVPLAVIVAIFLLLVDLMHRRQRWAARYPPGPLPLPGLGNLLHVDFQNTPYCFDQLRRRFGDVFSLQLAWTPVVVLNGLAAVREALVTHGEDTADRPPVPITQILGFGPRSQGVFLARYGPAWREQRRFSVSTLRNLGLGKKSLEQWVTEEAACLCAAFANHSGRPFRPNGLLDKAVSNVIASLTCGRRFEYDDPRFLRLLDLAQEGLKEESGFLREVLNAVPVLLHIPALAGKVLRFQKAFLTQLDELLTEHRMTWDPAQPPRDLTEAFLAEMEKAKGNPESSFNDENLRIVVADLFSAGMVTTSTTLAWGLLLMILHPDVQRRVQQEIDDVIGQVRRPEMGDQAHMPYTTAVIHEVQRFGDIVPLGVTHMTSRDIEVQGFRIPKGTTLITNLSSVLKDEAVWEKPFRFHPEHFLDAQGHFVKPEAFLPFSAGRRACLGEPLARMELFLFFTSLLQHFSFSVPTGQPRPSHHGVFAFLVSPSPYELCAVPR

How the values were obtained:
[1] = qHTS to identify inhibitors of the type 1 interferon - major histocompatibility complex class I in skeletal muscle: primary screen against the NCATS Mechanism Interrogation Plate v5.0 (MIPE) Libary (AID 1347411); details: iHSKM cells + IFN-b, HiBiT-tagged MHC-I luminescence, 24 h; at 45.8 µM (top of the series);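 note: plate controls were vehicle for no effect and reference inhibitor for full effect; nearly all actives have a fitted effect of over 65% in size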
Text: (§1) Assay Submitter (PI): Travis B. Kinder Ph.D. & James Inglese Ph.D.
(§2) Assay Development and Screening Technology Laboratory (ADST)
(§3) National Center for Advancing Translational Sciences (NCATS), Rockville, MD
(§4) National Institute of Health (NIH), Bethesda, Maryland
(§5) Idiopathic inflammatory myopathies, collectively referred to as myositis, are a group of rare autoimmune diseases characterized by skeletal muscle inflammation, weakness, and usually accompanied by systemic pathologies of the skin, lungs, or vasculature. Current immunosuppressive therapies and glucocorticoids are often not curative and are accompanied by harsh side effects, especially in children with juvenile myositis. […] We conducted quantitative high throughput screening on 6,576 compounds (4,679 unique) through a series of cell-based assays to identify those that inhibit the IFN-stimulated expression of MHC class I in muscle precursor cells (myoblasts). […]
(§6) The primary screen utilized CRISPR/Cas9 genome-engineering of immortalized human myoblasts, C25cl48, where a pro-luminescent reporter HiBit was fused to the C-terminus of endogenous MHC class I allele HLA-B*08:01 (HLA-B HiBit myoblasts). […] After 24 hrs of treatment, cells were assayed by Nano-Glo HiBiT Lytic Detection System (Promega) and luminescence measured by a ViewLux 1430 Ultra HTS (Perkin Elmer). […]

[2] = target: Calcium and integrin-binding protein 1 (Homo sapiens) (UniProt Q99828); assay: Primary qHTS for Identification of Calcium Integrin Binding Protein 1 (CIB1) Competitor (AID 1508620); details: CIB1-GST / FITC-alphaIIb peptide fluorescence polarization; at 114 µM (top of the series) unless noted;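 note: GST tagged CIB1 binding a fluorescein labelled alphaIIb integrin peptide tracer; top concentration of the series differs between compounds; % is set by controls: 0 for no effect and ±100 for the full control effect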
In short: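 Fluorescence polarization competition: CIB1-GST (1 uM final) preincubated with compound 15 min at room temperature, then FITC-labeled alphaIIb peptide (100 nM final) added for another 15 min. Polarization read at Ex 480/Em 540.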

[3] = qHTS to identify inhibitors of the type 1 interferon - major histocompatibility complex class I in skeletal muscle: primary screen against the NCATS Pharmaceutical Collection (AID 1347407); details: human skeletal muscle cells, IFN-b-induced MHC-I HiBiT luminescence, 24 h; at 45.9 µM (top of the series);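 note: luminescence of HiBiT knocked into endogenous HLA-B as interferon-induced MHC class I level; % is set by controls: 0 for no effect and ±100 for the full control effect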
Text: as §1, §2, §3, §4, §5, §6

[4] = target: Protein phosphatase 1D (Homo sapiens) (UniProt O15297); assay: RapidFire Mass Spectrometry qHTS Assay for Modulators of WT P53-Induced Phosphatase 1 (WIP1) (AID 1347424); details: WIP1 dephosphorylation of phosphopeptide, RapidFire MS; at 63 µM (top of the series);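 note: amount of dephosphorylated VEPPL-S-QETFS peptide product formed by WIP1; plate controls were DMSO wells for no effect and GSK830371 inhibitor control at 10 µM for full effect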
In short: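 Mass-spectrometric measurement of dephosphorylated peptide after a 5 min room-temperature reaction of 10 nM WIP1 with 2 uM phosphopeptide, following 1 h compound preincubation in 30 mM MgCl2 buffer.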

[5] = target: Protein phosphatase 1D (Homo sapiens) (UniProt O15297); assay: Rhodamine-PBP qHTS Assay for Modulators of WT P53-Induced Phosphatase 1 (WIP1) (AID 1347425); details: recombinant WIP1, Rhodamine-PBP phosphate fluorescence, real-time; at 57.5 µM (top of the series); note: % of control where 0% means no effect
In short: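 Read-out: Rhodamine-PBP fluorescence (ex 525/em 598 nm) for released Pi, read each minute for 11 min after adding 10 uM VEPPL-pS-QETFS; signal taken as f1 minus pre-substrate f0. Enzyme 5 nM WIP1 with 1 hr room-temperature compound preincubation.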

[6] = Primary qHTS for small molecule stabilizers of the endoplasmic reticulum resident proteome: Secreted ER Calcium Modulated Protein (SERCaMP) assay (AID 1508630); details: SH-SY5Y GLuc-SERCaMP (Gaussia luciferase released on ER calcium loss) secretion, thapsigargin, luminescence; at 38.4 µM (top of the series); note: % is set by controls: 0 for no effect and ±100 for the full control effect
In short: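 The SH-SY5Y reporter protocol was run at 3 concentrations up to 38.3 uM (primary) or 11 concentrations (follow-up): 16 h compound, 100 nM thapsigargin for 4 h, then extracellular luciferase luminescence.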

[7] = A High-Content qHTS Against Drug Library for the Identification of Small Molecules that Inhibit DYT1 Early Onset Primary Dystonia-Associated Cell Pathology (AID 1645839; calls by dose curve); details: HEK293 Flp-In EGFP-delE TorsinA, punctate imaging, 48 h; at 46.1 µM (top of the series)
In short: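 Induced EGFP-delE TorsinA cells are imaged after 48 h of compound treatment. Punctate fusion-protein distribution gives the %pathology value, while nuclei counts flag toxicity. Wild-type EGFP-hTOR1A cells define the normal pattern.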

[8] = target: Cytochrome P450 2D6 (Homo sapiens) (UniProt P10635); assay: Cytochrome P450 family 2 subfamily D member 6 (CYP2D6) small molecule antagonists: luciferase biochemical (cell-free) qHTS assay (AID 1645840; active = well fitted curve in the direction sought with a large enough effect in the repeat runs; an effect the other way counts as inactive or inconclusive; note: nearly all actives have a fitted effect of over 55% in size; note: potency is the fitted concentration of half-maximal effect; for activity change, negative = inhibition: % is set by controls: 0 for no effect and ±100 for the full control effect); details: P450-Glo CYP2D6 enzyme, luciferin luminescence, 1 h; series mostly up to 57.4 µM
In short: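 P450-Glo CYP2D6 system: proluciferin substrate converted by enzyme to luciferin, read by luminescence proportional to activity. Enzyme-substrate mix with compound 10 min at room temperature, then NADPH regeneration 1 h before detection reagent.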

[9] = qHTS of pediatric cancer cell lines to identify multiple opportunities for drug repurposing: Confirmatory screen for OHS-50 cells (AID 1347128); details: OHS-50 osteosarcoma cells viability; at 45.9 µM (top of the series);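 note: compound exposure lasted 48 h at 37 degrees C; % is set by controls: 0 for no effect and ±100 for the full control effect; nearly all actives have a fitted effect of over 55% in size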
In short: (§7)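 Cells (500-1,000/well) in growth media were settled 5 h at 37 degrees C, then given compounds for 48 h. Viability was read as CellTiter-Glo luminescence. Primary runs used MIPE at 11 points (0.78 nM-46 µM) and NPC at 8 points (0.59 nM-46 µM); follow-ups used 11 points.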

[10] = qHTS of pediatric cancer cell lines to identify multiple opportunities for drug repurposing: Confirmatory screen for SK-N-SH cells (AID 1347129); details: SK-N-SH neuroblastoma cell viability; at 46.1 µM (top of the series);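 note: cells exposed to compound for 48 h before viability read; plate controls were DMSO for no effect and bortezomib control for full effect; nearly all actives have a fitted effect of over 60% in size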
In short: as §7

| Compound | activity change, negative = inhibition [1] | activity change, negative = inhibition [2] | activity change, negative = inhibition [3] | activity change, negative = inhibition [4] | activity change, negative = inhibition [5] | activity change, negative = inhibition [6] | % pathology change, negative = correction [7] | Potency [8] | activity change, negative = cytotoxic [9] | activity change, negative = cytotoxic [10] |
| --- | --- | --- | --- | --- | --- | --- | --- | --- | --- | --- |
| CCOC(=O)C(=O)CBr | inactive: 10.4% | inactive: 4.27% [at 57.7 µM] | – | – | – | – | – | – | – | – |
| CCC(=O)N(c1ccccc1)C1CCNCC1 | – | inactive: -2.66% | inactive: 1.27% | inactive: -2.17% | inactive: 1.18% | inactive: -2.4% | inactive: -0.167% | active: 15.5 µM | – | – |
| CC(=O)N1CCc2ccc(N(C(=O)/C=C/c3cccc(C#N)c3)C3CCN(CCC4CCCC4)CC3)cc21 | – | inactive: 2.89% | – | – | – | – | – | active: 12 µM | – | – |
| CCOC(=O)N1CCC(=O)CC1 | – | inactive: -4.16% | inactive: 17.4% | inactive: 4.73% | inactive: 9.5% | inactive: -13.9% | inactive: 11.3% | inactive | inactive: 1.46% | inactive: 10.8% |
